Values of other authors, collected in publication PMC3577726, “Osteocalcin Induces Release of Glucagon-Like Peptide-1 and Thereby Stimulates Insulin Secretion in Mice” (PLoS ONE, 2013).

Conditions: cited from earlier work

Substance | Rate of absorption from the intestine into the bloodstream [%]
Insulin | ~5
vasopressin | ~5
